The source of these data is patent publication US11731967B2, “Inhibitors of TRIM33 and methods of use” (Dana-Farber Cancer Institute, Inc., priority 2017, dated 2023).

The chains behind the UniProt entries cited, without tags or fusion partners.
UniProt Q9UPN9, whole entry: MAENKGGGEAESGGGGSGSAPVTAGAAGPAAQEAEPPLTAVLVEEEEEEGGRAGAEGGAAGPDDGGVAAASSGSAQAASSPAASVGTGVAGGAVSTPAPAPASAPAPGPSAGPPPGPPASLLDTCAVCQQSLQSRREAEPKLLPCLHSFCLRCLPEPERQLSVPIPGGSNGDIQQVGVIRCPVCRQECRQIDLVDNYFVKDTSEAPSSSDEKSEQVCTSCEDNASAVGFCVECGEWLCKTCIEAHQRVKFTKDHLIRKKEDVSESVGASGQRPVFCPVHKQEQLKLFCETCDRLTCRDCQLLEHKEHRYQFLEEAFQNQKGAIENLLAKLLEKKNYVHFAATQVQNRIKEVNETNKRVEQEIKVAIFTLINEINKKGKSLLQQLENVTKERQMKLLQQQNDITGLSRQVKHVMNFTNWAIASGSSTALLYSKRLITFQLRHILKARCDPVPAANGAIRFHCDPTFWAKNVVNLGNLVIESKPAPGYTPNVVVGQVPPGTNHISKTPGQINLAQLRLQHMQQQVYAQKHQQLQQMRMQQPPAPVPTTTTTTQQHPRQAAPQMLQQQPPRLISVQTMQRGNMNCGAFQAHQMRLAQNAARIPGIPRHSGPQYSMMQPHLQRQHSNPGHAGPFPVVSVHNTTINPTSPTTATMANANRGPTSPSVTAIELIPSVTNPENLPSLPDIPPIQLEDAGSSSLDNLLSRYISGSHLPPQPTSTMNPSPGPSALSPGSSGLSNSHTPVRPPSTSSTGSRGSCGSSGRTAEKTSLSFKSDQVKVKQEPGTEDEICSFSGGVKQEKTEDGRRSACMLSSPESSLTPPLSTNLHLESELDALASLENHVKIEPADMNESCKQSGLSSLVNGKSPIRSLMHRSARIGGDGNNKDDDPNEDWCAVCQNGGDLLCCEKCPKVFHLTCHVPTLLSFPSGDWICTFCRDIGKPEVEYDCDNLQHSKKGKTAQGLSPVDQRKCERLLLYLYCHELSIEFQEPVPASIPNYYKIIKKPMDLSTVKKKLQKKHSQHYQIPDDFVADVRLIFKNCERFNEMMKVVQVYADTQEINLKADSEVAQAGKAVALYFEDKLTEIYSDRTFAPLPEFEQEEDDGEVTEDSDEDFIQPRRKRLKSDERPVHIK
UniProt O15164, whole entry: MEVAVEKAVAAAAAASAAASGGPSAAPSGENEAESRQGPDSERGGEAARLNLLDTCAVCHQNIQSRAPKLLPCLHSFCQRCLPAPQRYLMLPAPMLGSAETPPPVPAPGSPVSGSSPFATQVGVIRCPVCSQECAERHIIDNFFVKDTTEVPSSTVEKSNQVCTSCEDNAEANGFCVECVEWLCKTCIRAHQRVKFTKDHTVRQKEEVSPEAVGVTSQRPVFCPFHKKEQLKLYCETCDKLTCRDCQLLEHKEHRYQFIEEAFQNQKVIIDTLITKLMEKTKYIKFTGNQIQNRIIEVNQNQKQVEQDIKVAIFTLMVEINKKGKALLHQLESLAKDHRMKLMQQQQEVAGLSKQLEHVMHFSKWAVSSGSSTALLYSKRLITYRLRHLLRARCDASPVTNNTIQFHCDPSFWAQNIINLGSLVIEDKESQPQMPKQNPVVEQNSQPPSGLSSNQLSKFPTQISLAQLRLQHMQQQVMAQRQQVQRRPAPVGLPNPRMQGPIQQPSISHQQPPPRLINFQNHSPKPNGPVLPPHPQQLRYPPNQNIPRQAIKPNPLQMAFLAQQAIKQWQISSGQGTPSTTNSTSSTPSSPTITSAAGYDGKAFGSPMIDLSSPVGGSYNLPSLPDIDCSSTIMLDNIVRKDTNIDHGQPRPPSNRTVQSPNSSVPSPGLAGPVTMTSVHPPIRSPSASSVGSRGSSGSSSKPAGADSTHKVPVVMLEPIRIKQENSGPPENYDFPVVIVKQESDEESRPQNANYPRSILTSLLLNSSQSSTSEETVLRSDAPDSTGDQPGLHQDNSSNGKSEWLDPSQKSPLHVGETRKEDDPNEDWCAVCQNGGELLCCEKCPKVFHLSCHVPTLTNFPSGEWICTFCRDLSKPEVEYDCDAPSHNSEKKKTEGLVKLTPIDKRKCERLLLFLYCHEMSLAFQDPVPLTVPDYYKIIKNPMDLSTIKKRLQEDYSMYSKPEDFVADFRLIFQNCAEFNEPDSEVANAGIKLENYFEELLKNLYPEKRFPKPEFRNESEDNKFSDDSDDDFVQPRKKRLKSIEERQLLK

Experiment [1] has as its system recombinant PHD-bromodomain module of TRIM33. Kind of experiment: AlphaScreen binding assay, TRIM33 with biotinylated H3K9me3K18ac peptide. The conditions noted are these: for selectivity for TRIM33 over TRIM24: plots of TRIM24 vs TRIM33 modulating activity at the indicated concentration(s), FIGS. 2A, 2B, 5, 6. A general note: In Alpha technology, singlet oxygen from a donor bead excites a nearby acceptor bead.

In experiment [2] the target is recombinant PHD-bromodomain module of TRIM33 (Homo sapiens, UniProt Q9UPN9). Described as above.
The next experiment addresses TRIM24 (Homo sapiens, UniProt O15164). Kind of experiment: AlphaScreen binding assay for TRIM24 (counter-screening assay). Conditions: read-out: IC50 TRIM24; compounds with R7/R7′ shown in FIG. 11A (Table 6).

Where two headings read alike, the source gives them in different places.

As for `COCCNc1c(-c2ccc3nccn3c2)nc2cnccn12`, the “selectivity for TRIM33 over TRIM24” value in experiment [1] is “selectivity for TRIM33 over TRIM24”.
Regarding `COCCNc1c(-c2c[nH]c(C)n2)nc2ccc(Br)cn12`, the IC50 in experiment [2] (read-out: IC50 TRIM33, compounds with R7/R7′ shown in FIG. 11A (Table 6)) worked out at 299 nM; at TRIM24, 221 nM.
Turning to `COc1ccc(Nc2c(-c3c[nH]c(C)n3)nc3ccc(Br)cn23)cc1` [pck-9295-016], the “selectivity for TRIM33 over TRIM24” value in experiment [1] is recorded as “selectivity for TRIM33 over TRIM24”.
As for `Cc1[nH]cnc1-c1nc2ccccn2c1NC1CCCCC1`, the “selectivity for TRIM33 over TRIM24” value in experiment [1] is given as “selectivity for TRIM33 over TRIM24”.
Turning to `c1cn2c(NC3CCCCC3)c(-c3ccc4nccn4c3)nc2cn1`, the “Ratio of TRIM24 IC50 over TRIM33 IC50” value in experiment [1] (compounds shown in Table 2a) came to 1.90. In addition, the “selectivity for TRIM33 over TRIM24” value in experiment [1] is “selectivity for TRIM33 over TRIM24”.
For `COCCNc1c(-c2nc[nH]c2C)nc2cnccn12`, the “selectivity for TRIM33 over TRIM24” value in experiment [1] was “selectivity for TRIM33 over TRIM24”.
Consider `COCCNc1c(-c2c[nH]c(C)n2)nc2ccc(C(=O)OC)cn12`, for which the IC50 in experiment [2] (read-out: TRIM33 modulating activity, compounds shown in Table 2a, called TRIM33 IC50 in title of Table 5, unit inferred) was found to be 56900 nM.
